Our source for the IC50 values is patent US11591313B2, “Inhibitors of ectonucleotide pyrophosphatase/phosphodiesterase 1 (ENPP1) and methods of use thereof” (Stingray Therapeutics, Inc., priority 2020, dated 2023).

Chains of the proteins cited; added tags and fusions are not shown. Lines headed by an entry give the natural chain unless they say otherwise; changes in a name come on top.
UniProt P22413: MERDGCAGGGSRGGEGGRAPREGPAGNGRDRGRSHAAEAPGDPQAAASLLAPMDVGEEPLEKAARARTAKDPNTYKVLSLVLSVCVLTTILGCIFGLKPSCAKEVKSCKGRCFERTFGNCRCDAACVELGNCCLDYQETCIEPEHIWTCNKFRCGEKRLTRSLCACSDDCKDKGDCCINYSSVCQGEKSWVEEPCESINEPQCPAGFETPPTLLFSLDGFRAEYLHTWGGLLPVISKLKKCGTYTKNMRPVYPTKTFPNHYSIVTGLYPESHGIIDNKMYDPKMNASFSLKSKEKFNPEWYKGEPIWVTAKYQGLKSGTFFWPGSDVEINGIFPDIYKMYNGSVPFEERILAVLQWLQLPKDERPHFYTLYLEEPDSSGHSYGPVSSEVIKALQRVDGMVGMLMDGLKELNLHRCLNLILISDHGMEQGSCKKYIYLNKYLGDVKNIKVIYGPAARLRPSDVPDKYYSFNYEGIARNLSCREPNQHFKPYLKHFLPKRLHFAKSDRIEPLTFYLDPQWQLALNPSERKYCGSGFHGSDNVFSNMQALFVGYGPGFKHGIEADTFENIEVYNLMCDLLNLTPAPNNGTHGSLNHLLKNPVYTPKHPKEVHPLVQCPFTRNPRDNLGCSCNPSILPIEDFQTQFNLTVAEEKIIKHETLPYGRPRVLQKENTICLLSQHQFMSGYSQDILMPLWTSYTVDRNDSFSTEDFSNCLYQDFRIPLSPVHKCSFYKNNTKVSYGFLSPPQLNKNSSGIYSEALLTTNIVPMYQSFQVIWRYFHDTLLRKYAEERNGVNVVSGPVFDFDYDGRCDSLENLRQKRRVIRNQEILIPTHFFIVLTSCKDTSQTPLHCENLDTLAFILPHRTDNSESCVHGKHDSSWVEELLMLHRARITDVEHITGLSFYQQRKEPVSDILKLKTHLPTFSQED

The structures appear in SMILES notation. Structures can show the parent of a compound that is named as a salt.

The first experiment concerns the target Recombinant Human ENPP-1 Protein (Homo sapiens (Human), UniProt P22413). Description: ENPP1 Assay (TMP). Type of experiment: biochemical. Conditions: substrate thymidine 5′-monophosphate 150 μM, pH 9.0, 37° C. 45 minutes, absorbance at 405 nm.
In the case of `COc1cc2ncnc(N3CCCC(CCNS(N)(=O)=O)CC3)c2cc1OC` (stereo not drawn) [Compound 060, N-(2-(1-(6,7-dimethoxyquinazolin-4-yl)azepan-4-yl)ethyl)sulfamide], the IC50 turned out to be 0.00434 µM.

The same experiment, now with this note: substrate thymidine 5′-monophosphate 150 μM, pH 9.0, 37° C. 45 minutes, absorbance at 405 nm; read-out: IC50.
Consider `COc1cc2ncc(C#N)c(-c3ccc(CNS(N)(=O)=O)nc3)c2cc1OC` [Compound 046], for which the IC50 stood at 0.0098 µM. `COc1cc2ncnc(-c3ccc(CNS(N)(=O)=O)nc3)c2cc1OC` [Compound 047, N-((5-(6,7-dimethoxyquinazolin-4-yl)pyridin-2-yl)methyl) sulfamide]: the half-maximal inhibitory concentration (IC50) is 0.0671 µM. Turning to `COc1cc2ncnc(-c3ccc(NCCNS(N)(=O)=O)nc3)c2cc1OC.Cl` [Compound 048], the IC50 was 0.0604 µM.

As to `COc1cc2ncnc(N3CCCC(CCNS(N)(=O)=O)CC3)c2cc1OC` (stereo not drawn) [Compound 049], the IC50 was 0.00179 µM. Consider `COc1cc2ncnc(CCCCCNS(N)(=O)=O)c2cc1OC` [Compound 050], for which the IC50 turned out to be 0.0201 µM.

Turning to `COc1cc2ncnc(OCCCCNS(N)(=O)=O)c2cc1OC` [Compound 053], the IC50 was determined as 0.0036 µM. As for `COc1cc2ncnc(OCCCCCNS(N)(=O)=O)c2cc1OC` [Compound 054], the IC50 was 0.0238 µM. In the case of `COc1cc2ncnc(NCCCCNS(N)(=O)=O)c2cc1OC` [Compound 056], the IC50 was determined as 0.00687 µM. Turning to `COc1cc2ncnc(NCCCCCNS(N)(=O)=O)c2cc1OC` [Compound 057], the IC50 was determined as 0.0466 µM. Turning to `COc1cc2ncnc(SCCCCNS(N)(=O)=O)c2cc1OC` [Compound 058, N-(4-((6,7-dimethoxyquinazolin-4-yl)thio)butyl) sulfamide hydrochloride], the IC50 turned out to be 0.00306 µM.

Take `COc1cc2ncnc(N(C)CCCCCNS(N)(=O)=O)c2cc1OC` [Compound 061, N-(5-((6,7-dimethoxyquinazolin-4-yl) (methyl)amino)pentyl) sulfamide]: the concentration for half-maximal inhibition (IC50) worked out at 0.0289 µM.

For orientation: IC50 means the concentration that gives 50% inhibition.
